Test results taken from ChEMBL document CHEMBL1132758, “Synthesis and estrogenic activities of novel 7-thiosubstituted estratriene derivatives” (Bioorg Med Chem Lett, 2000).

Sequences of proteins named here, by UniProt entry; tags and fusion partners are left off.
UniProt P03372, whole entry: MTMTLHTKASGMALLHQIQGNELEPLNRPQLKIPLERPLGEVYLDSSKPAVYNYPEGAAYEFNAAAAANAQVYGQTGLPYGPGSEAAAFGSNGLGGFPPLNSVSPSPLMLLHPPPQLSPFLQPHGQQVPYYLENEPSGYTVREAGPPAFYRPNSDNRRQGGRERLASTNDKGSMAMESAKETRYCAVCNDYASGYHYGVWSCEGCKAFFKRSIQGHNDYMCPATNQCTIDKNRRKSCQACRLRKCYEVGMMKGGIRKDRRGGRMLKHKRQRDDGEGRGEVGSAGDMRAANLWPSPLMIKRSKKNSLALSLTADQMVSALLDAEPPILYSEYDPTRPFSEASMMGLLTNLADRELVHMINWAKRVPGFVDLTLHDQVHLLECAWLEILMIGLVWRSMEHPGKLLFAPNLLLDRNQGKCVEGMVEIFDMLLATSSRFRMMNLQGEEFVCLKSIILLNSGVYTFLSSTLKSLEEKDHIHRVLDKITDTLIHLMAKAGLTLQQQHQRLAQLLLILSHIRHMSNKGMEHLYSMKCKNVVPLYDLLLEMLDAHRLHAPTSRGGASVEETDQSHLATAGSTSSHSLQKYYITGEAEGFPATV

Biological target: Estrogen receptor (Homo sapiens, UniProt P03372)
Settings: mcf7; call rule not given here

## C[C@]12CC[C@@H]3c4ccc(O)cc4C[C@@H](CCCCCCCCC[S+]([O-])CCCC(F)(F)C(F)(F)F)[C@H]3[C@@H]1CC[C@@H]2O (stereo partly specified) [FULVESTRANT]
  EC50: Not Active
